Data on two compounds can be found in article PMC11881561 (Antimicrobial Agents and Chemotherapy, 2025).

Sequences of proteins named here, by UniProt entry; tags and fusion partners are left off. Residues count along the entry.
UniProt Q9F663, 27-293 D178Y/H272Y: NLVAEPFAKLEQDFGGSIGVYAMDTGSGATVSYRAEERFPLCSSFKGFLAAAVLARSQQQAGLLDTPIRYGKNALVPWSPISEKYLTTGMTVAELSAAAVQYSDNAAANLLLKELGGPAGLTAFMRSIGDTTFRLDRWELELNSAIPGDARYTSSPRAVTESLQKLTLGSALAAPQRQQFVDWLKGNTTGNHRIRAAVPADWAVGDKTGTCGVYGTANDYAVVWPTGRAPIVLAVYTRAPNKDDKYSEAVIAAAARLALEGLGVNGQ
UniProt Q9F663, 27-293 D178Y/T242M/H272Y: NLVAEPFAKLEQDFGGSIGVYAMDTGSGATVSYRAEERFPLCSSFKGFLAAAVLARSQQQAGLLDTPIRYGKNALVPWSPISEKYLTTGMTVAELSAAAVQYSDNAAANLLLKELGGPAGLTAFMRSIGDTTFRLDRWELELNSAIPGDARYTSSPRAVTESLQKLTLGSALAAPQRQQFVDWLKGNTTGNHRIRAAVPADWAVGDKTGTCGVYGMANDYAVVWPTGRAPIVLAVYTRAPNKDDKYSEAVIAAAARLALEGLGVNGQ
UniProt Q9F663, 25-293 D178Y: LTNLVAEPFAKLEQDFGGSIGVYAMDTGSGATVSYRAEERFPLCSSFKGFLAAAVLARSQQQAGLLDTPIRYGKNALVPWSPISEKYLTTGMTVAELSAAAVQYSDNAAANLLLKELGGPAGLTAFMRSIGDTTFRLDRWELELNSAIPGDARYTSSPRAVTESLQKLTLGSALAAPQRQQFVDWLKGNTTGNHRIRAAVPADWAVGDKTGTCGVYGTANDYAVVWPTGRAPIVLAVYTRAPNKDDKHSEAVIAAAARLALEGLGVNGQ
UniProt Q9F663, 25-293 D178Y/T242M: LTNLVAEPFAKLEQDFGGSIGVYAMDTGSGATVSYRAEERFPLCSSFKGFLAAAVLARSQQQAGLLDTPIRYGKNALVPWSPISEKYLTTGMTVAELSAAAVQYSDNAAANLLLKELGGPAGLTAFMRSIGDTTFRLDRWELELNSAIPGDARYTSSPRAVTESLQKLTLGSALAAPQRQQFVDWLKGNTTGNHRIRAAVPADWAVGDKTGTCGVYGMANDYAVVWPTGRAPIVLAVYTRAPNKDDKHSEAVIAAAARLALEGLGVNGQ
UniProt Q9F663, 25-293 V239G: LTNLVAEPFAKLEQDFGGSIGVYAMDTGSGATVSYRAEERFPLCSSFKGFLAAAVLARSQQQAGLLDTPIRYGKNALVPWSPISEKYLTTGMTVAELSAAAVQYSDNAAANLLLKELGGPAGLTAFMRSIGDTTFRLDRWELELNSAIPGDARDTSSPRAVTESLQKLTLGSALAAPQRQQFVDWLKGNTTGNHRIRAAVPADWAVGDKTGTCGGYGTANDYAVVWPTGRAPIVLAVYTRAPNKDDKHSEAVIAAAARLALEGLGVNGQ
UniProt Q9F663, 27-293 H272Y: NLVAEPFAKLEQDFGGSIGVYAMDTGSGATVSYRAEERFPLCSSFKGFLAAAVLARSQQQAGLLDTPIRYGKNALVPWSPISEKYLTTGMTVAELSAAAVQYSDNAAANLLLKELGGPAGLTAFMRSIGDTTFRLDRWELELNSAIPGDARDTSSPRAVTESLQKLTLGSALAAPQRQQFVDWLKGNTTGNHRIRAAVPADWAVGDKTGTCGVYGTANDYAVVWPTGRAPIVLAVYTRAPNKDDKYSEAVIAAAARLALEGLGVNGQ
UniProt Q9F663, 27-293 V239G/H272Y: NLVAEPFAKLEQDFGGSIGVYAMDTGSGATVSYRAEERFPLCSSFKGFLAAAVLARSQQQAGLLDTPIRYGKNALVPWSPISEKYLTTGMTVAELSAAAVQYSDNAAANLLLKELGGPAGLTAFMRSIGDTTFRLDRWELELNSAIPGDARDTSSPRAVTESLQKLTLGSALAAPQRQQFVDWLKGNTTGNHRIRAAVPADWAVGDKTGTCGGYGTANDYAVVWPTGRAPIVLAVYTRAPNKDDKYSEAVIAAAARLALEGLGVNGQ

For assay [1], the target named is KPC-3^D179Y (Klebsiella pneumoniae, UniProt Q9F663, D178Y/H272Y). The assay is described as follows: β-lactam hydrolysis kinetics, purified KPC-3 D179Y. Type of assay: biochemical. Conditions: substrate hydrolysis by KPC-3 D179Y. The method, then: (§1) Measurements to determine kinetic parameters for hydrolysis, and kinetic parameters for inhibition were performed at ambient temperature in PBS (pH 7.4) containing 0.1 mg/mL bovine serum albumin, using a PowerWaveXS plate reader (BioTek).
(§2) Assays to determine Michaelis-Menten kinetic parameters were performed by mixing variable amounts of enzymes (depending on the enzyme-substrate pair), with serial dilutions of different BL substrates and continuously monitoring the reduction in absorbance associated with BL hydrolysis ([28], [36], [40], [41]). Kinetic parameters were determined by plotting initial rates of hydrolysis (v) as a function of substrate concentration [S] and fitting the data to equation 1 using GraphPad Prism,
(§3) (1) v=[Et]×kcat×[S]/KM+[S]
(§4) where [Et] is the enzyme concentration, kcat the turnover number and KM the Michaelis constant.

Assay [2] concerns the target KPC-3^D179Y/T243M (Klebsiella pneumoniae, UniProt Q9F663, D178Y/H272Y/T242M). Kind of assay: β-lactam hydrolysis kinetics, purified KPC-3 D179Y/T243M. Conditions: substrate hydrolysis by KPC-3 D179Y/T243M. The assay is classed as biochemical. How it is done: as §1, §2, §3, §4
Assay [3] addresses KPC-2^D179Y (Klebsiella pneumoniae, UniProt Q9F663, D178Y). The assay is described as follows: β-lactam hydrolysis kinetics, purified KPC-2 D179Y. Type of assay: biochemical. The conditions noted are these: substrate hydrolysis by KPC-2 D179Y. The method, then:
as §1, §2, §3, §4

The target in assay [4] is KPC-2^D179Y/T243M (Klebsiella pneumoniae, UniProt Q9F663, D178Y/T242M). The assay is described as follows: β-lactam hydrolysis kinetics, purified KPC-2 D179Y/T243M. Type of assay: biochemical. Conditions: substrate hydrolysis by KPC-2 D179Y/T243M. How it is done: as §1, §2, §3, §4
For assay [5], the target named is KPC-2^V240G (Klebsiella pneumoniae, UniProt Q9F663, V239G). Type of assay: biochemical.
In assay [6] the target is KPC-3 WT (Klebsiella pneumoniae, UniProt Q9F663, H272Y). Type of assay: biochemical. Conditions: substrate hydrolysis by KPC-3 WT.
The target of assay [7] is KPC-3^V240G (Klebsiella pneumoniae, UniProt Q9F663, H272Y/V239G). Type of assay: biochemical.
Assay [8] has as its system D179Y-containing KPC-3 variants. The assay is classed as biochemical, Klebsiella pneumoniae.
Assay [9] concerns wild-type KPC-2 and KPC-3 enzymes. The assay is classed as biochemical, Klebsiella pneumoniae.
The target of assay [10] is KPC-2 D179Y-containing variants (Klebsiella pneumoniae, UniProt Q9F663, D178Y). Type of assay: biochemical.

Structures are written as SMILES.

For `CC(C)(O/N=C(\C(=O)N[C@@H]1C(=O)N2C(C(=O)[O-])=C(C[n+]3ccccc3)CS[C@H]12)c1csc(N)n1)C(=O)O` [CAZ, ceftazidime], the Km – broadly, the substrate concentration at which the rate is half of its maximum – was 15.5 ± 4.7 µM in [1]; 14.6 ± 4.1 µM in assay [2]; 0.6 ± 0.09 µM in assay [3]; 1 ± 0.2 µM in assay [4]; more than 500 µM in [5]; more than 500 µM in [6]. Further, the Km in assay [7] was more than 500 µM. The figures for the kcat entry in assay [3] and in assay [4] were “(1.2 ± 0.04) × 10^−3 s^−1” and “(3.7 ± 0.13) × 10^−3 s^−1”, respectively.

As to `Nc1nc(/C(=C/CC(=O)O)C(=O)N[C@@H]2C(=O)N3C(C(=O)O)=CCS[C@H]23)cs1` [CTB, ceftibuten], in [8], the CTB conversion was 30 – 40%. Besides, the “time for CTB hydrolysis to near completion” value was “within five minutes” in assay [9] and ~ 50 minutes in [10].
